Measured values: ChEMBL document CHEMBL4334548, “Discovery of Isoxazole Amides as Potent and Selective SMYD3 Inhibitors” (ACS Med Chem Lett, 2020)

Tests used:
[1] = biological target: T1, Histone-lysine N-methyltransferase SMYD3 (Homo sapiens, UniProt Q9H7B4); test: Inhibition of recombinant N-terminal FLAG/His-tagged SMYD3 (unknown origin) expressed in baculovirus infected insect cells using 3H-SAM as substrate assessed as 3H-MEKK2 methylation incubated for 40 mins by scintillation proximity assay
T1 sequence (Q9H7B4 whole entry): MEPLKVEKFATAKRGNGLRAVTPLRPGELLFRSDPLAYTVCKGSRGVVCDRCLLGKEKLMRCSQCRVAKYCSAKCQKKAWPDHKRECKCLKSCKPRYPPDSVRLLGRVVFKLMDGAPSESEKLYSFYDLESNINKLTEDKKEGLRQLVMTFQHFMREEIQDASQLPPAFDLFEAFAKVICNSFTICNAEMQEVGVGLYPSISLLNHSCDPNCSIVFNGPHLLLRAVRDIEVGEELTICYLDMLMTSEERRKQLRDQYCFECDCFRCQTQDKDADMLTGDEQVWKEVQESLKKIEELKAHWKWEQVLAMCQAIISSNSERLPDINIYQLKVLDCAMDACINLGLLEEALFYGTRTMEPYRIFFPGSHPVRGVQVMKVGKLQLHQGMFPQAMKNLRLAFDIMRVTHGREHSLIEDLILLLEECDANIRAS

[2] = biological target: T1, Histone-lysine N-methyltransferase SMYD3; test: Inhibition of recombinant SMYD3 (unknown origin) transfected in human HEK293 cells assessed as reduction in MEKK2 methylation incubated for 24 hrs by cellular mechanistic assay; format: cell-based
[3] = biological target: T1, Histone-lysine N-methyltransferase SMYD3; test: Uncompetitive inhibition of SMYD3 (unknown origin) assessed as inhibitory constant incubated for 60 mins by Cheng-Prusoff equation analysis
[4] = biological target: T1, Histone-lysine N-methyltransferase SMYD3; test: Uncompetitive inhibition of SMYD3 (unknown origin) assessed as inhibitory constant incubated for 60 mins by Lineweaver-Burk plot analysis
[5] = biological target: T1, Histone-lysine N-methyltransferase SMYD3; test: Inhibition of SMYD3 (unknown origin) assessed as reduction in histone H4 methylation

IC50 [1] [nM] | EC50 [2] [nM] | Ki [3] [nM] | Ki [4] [nM] | IC50 [5] [nM] | Compound
79 | 597 |  |  |  | CN(C)Cc1ccc(S(=O)(=O)N2CCC(NC(=O)c3cc(C4CC4)on3)CC2)cc1
10 | 160 |  |  |  | N[C@H]1CC[C@@H](S(=O)(=O)N2CCC(NC(=O)c3cc(C4CC4)on3)CC2)CC1
40 | 173 |  |  |  | CC(C)(C)CN[C@H]1CC[C@H](CS(=O)(=O)N2CCC(NC(=O)c3cc(C4CC4)on3)CC2)CC1
100 | 919 |  |  |  | O=C(NC1CCN(S(=O)(=O)c2ccc(CN3CCCCC3)cc2)CC1)c1cc(C2CC2)on1
40 | 55 |  |  |  | O=C(NC1CCN(S(=O)(=O)C[C@H]2CC[C@H](NCc3cccnc3)CC2)CC1)c1cc(C2CC2)on1
< 1 | 261 |  |  |  | CN(CCCC(F)(F)F)[C@H]1CC[C@H](CS(=O)(=O)N2CCC(NC(=O)c3cc(C4CC4)on3)CC2)CC1
25 | 71 |  |  |  | O=C(NC1CCN(S(=O)(=O)C[C@H]2CC[C@H](NCc3ccccn3)CC2)CC1)c1cc(C2CC2)on1
7940 |  |  |  |  | CCS(=O)(=O)N1CCC(NC(=O)c2cc(C3CC3)on2)CC1
< 1 | 42 |  |  |  | O=C(NC1CCN(S(=O)(=O)C[C@H]2CC[C@H](NCc3ccc(F)cn3)CC2)CC1)c1cc(C2CC2)on1
< 1 | 199 |  |  |  | CN(C)[C@H]1CC[C@H](CS(=O)(=O)N2CCC(NC(=O)c3cc(C4CC4)on3)CC2)CC1
8 | 29 |  |  |  | O=C(NC1CCN(S(=O)(=O)C[C@H]2CC[C@H](NCc3cccc(Cl)c3)CC2)CC1)c1cc(C2CC2)on1
< 1 | 22 |  |  |  | O=C(NC1CCN(S(=O)(=O)C[C@H]2CC[C@H](NCc3ccccc3)CC2)CC1)c1cc(C2CC2)on1
10 | 58 |  |  |  | O=C(NC1CCN(S(=O)(=O)C[C@H]2CC[C@H](NCc3cc(F)ccn3)CC2)CC1)c1cc(C2CC2)on1
< 1 | 38 |  |  |  | O=C(NC1CCN(S(=O)(=O)C[C@H]2CC[C@H](NCc3cccc(F)c3)CC2)CC1)c1cc(C2CC2)on1
32 | 177 |  |  |  | CCCN[C@H]1CC[C@H](CS(=O)(=O)N2CCC(NC(=O)c3cc(C4CC4)on3)CC2)CC1
6.3 | 44 | 18 | 18 |  | O=C(NC1CCN(S(=O)(=O)[C@H]2CC[C@H](NCCCC(F)(F)F)CC2)CC1)c1cc(C2CC2)on1
20 | 179 |  |  |  | O=C(NC1CCN(S(=O)(=O)c2ccc(CN3CCC3)cc2)CC1)c1cc(C2CC2)on1
2.5 | 22 |  |  |  | O=C(NC1CCN(S(=O)(=O)C[C@H]2CC[C@H](NCc3ccccc3F)CC2)CC1)c1cc(C2CC2)on1
2.5 | 73 to 74 |  |  |  | N[C@H]1CC[C@H](CS(=O)(=O)N2CCC(NC(=O)c3cc(C4CC4)on3)CC2)CC1
158 |  |  |  |  | O=C(NC1CCN(S(=O)(=O)C[C@H]2CC[C@H](NCc3ccncc3)CC2)CC1)c1cc(C2CC2)on1
20 | 54 |  |  |  | Cc1ccc(CN[C@H]2CC[C@H](CS(=O)(=O)N3CCC(NC(=O)c4cc(C5CC5)on4)CC3)CC2)cc1
< 1 | 38 |  |  |  | Cc1ccccc1CN[C@H]1CC[C@H](CS(=O)(=O)N2CCC(NC(=O)c3cc(C4CC4)on3)CC2)CC1
32 | 183 | 17 |  | 167 | O=C(NC1CCN(S(=O)(=O)C2CCNCC2)CC1)c1cc(C2CC2)on1

IC50 [1] [nM] | EC50 [2] [nM] | Ki [3] [nM] | Ki [4] [nM] | IC50 [5] [nM] | Compound
16 | 373 |  |  |  | O=C(NC1CCN(S(=O)(=O)c2ccc(CN3CCCC3)cc2)CC1)c1cc(C2CC2)on1
100 | 617 |  |  |  | CCN1CCC(S(=O)(=O)N2CCC(NC(=O)c3cc(C4CC4)on3)CC2)CC1
32 | 205 |  |  |  | CCN[C@H]1CC[C@H](CS(=O)(=O)N2CCC(NC(=O)c3cc(C4CC4)on3)CC2)CC1
25 | 494 |  |  |  | NCCCCS(=O)(=O)N1CCC(NC(=O)c2cc(C3CC3)on2)CC1
< 1 | 26 |  |  |  | O=C(NC1CCN(S(=O)(=O)C[C@H]2CC[C@H](NCc3ccc(Cl)cn3)CC2)CC1)c1cc(C2CC2)on1
< 1 | 27 |  |  |  | O=C(NC1CCN(S(=O)(=O)C[C@H]2CC[C@H](NCc3cncc(F)c3)CC2)CC1)c1cc(C2CC2)on1
40 | 611 |  |  |  | O=C(NC1CCN(S(=O)(=O)C2CCNC2)CC1)c1cc(C2CC2)on1 (configuration not stated)
50 | 300 |  |  |  | CN1CCC(S(=O)(=O)N2CCC(NC(=O)c3cc(C4CC4)on3)CC2)CC1
< 1 | 11 |  |  |  | O=C(NC1CCN(S(=O)(=O)C[C@H]2CC[C@H](NCc3ccc(Cl)cc3)CC2)CC1)c1cc(C2CC2)on1
20 | 758 |  |  |  | CCN(CCCC(F)(F)F)[C@H]1CC[C@H](CS(=O)(=O)N2CCC(NC(=O)c3cc(C4CC4)on3)CC2)CC1
16 | 156 |  |  |  | CC(C)CN[C@H]1CC[C@H](CS(=O)(=O)N2CCC(NC(=O)c3cc(C4CC4)on3)CC2)CC1
32 | 95 |  |  |  | CCCCN[C@H]1CC[C@H](CS(=O)(=O)N2CCC(NC(=O)c3cc(C4CC4)on3)CC2)CC1
1.6 | 71 |  |  |  | N[C@H]1CC[C@H](S(=O)(=O)N2CCC(NC(=O)c3cc(C4CC4)on3)CC2)CC1
32 | 31 |  |  |  | O=C(NC1CCN(S(=O)(=O)C[C@H]2CC[C@H](NCc3ccccc3Cl)CC2)CC1)c1cc(C2CC2)on1
10 | 53 |  |  |  | Cc1cccc(CN[C@H]2CC[C@H](CS(=O)(=O)N3CCC(NC(=O)c4cc(C5CC5)on4)CC3)CC2)c1
20 | 128 |  |  |  | CC(C)(C)CCN[C@H]1CC[C@H](CS(=O)(=O)N2CCC(NC(=O)c3cc(C4CC4)on3)CC2)CC1
< 1 | 72 |  |  |  | O=C(NC1CCN(S(=O)(=O)C[C@H]2CC[C@H](NCCC(F)(F)F)CC2)CC1)c1cc(C2CC2)on1
25 | 237 |  |  |  | NC[C@H]1CC[C@H](S(=O)(=O)N2CCC(NC(=O)c3cc(C4CC4)on3)CC2)CC1
5 | 48 |  |  |  | Cc1ccc(CN[C@H]2CC[C@H](CS(=O)(=O)N3CCC(NC(=O)c4cc(C5CC5)on4)CC3)CC2)nc1
5 | 180 |  |  |  | CN[C@H]1CC[C@H](CS(=O)(=O)N2CCC(NC(=O)c3cc(C4CC4)on3)CC2)CC1
126 | 1520 |  |  |  | O=C(NC1CCN(S(=O)(=O)CCCN2CCCC2)CC1)c1cc(C2CC2)on1
1.3 | 19 |  |  |  | O=C(NC1CCN(S(=O)(=O)C[C@H]2CC[C@H](NCc3ccc(F)cc3)CC2)CC1)c1cc(C2CC2)on1
